The assay has as its target T1, human H1 receptor (Homo sapiens, UniProt P35367).
T1 construct: expressed in transfected cells; host or cells: CHO-K1
In words: radioligand binding to histamine receptor H1 ([3H] Pyrilamine). From the text:
Biochem Biophys Res Comm. 197(3): 1601-1608, 1993]. […] Biochem Biophys Res Comm. 197(3): 1601-1608, 1993].
Pyrilamine is used as positive control.

Sequences of proteins named here, by UniProt entry; tags and fusion partners are left off.
UniProt P35367, whole entry: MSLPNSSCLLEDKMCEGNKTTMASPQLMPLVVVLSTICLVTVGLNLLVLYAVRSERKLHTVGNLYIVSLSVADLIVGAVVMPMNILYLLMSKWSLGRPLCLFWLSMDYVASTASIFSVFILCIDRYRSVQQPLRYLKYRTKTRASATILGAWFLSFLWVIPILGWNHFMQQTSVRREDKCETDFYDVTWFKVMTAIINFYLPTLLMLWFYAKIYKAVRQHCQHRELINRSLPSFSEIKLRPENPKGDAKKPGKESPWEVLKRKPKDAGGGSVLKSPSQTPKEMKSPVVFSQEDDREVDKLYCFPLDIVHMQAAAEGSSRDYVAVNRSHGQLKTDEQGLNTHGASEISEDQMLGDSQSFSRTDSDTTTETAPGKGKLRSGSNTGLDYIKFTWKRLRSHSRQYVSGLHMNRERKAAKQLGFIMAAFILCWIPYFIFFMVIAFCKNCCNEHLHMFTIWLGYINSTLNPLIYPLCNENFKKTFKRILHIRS

As a reminder, the IC50 is the concentration needed to halve the response being measured. The low end stands for inhibition by little substance, the high end for a need for much substance.

Each structure is given as a SMILES string.

`Cc1ccc2c(c1)c1c(n2CCc2ccccc2)CCN(C)C1.Cl` [1.1.2(1-2)•HCl, 2,8-dimethyl-5-phenethyl-1,2,3,4-tetrahydro-1H-pyrido[4,3-b]indole hydrochloride] gave an IC50 of under 10 nM. Also, for the setting “10 μM ligand”, the “Histamine receptor H1, % inhibition” value was found to be 104%.

These data come from patent US20110039825A1, “LIGANDS OF ALPHA-ADRENOCEPTORS, DOPAMINE, HISTAMINE, IMIDAZOLINE AND SEROTONIN RECEPTORS AND THEIR USE” (Alla Chem, LLC, priority 2007, published 2011).
